Source: PubChem
The list is not random: actives were taken first. Their share in the collection is about 16%.
uPA generation: inhibitors of cell surface uPA generation. cell surface uPA generation assay, qHTS. Potency, µM (highest dose often 38.3 µM), inactives show top-dose activity change, negative = inhibition, actives largely listed as inhibitors. 330,000 tested, 0.31% active. AID 540303; active = well fitted inhibition curve with a large enough effect; inconclusive = small, poorly fitted or top-dose-only effect; inactive = no such curve, though single readings can be large or run the other way; tested in mouse RAW 264.7 cells; also: potency is read from the fitted curve at half-maximal effect; % is scaled to controls: 0 for no effect and ±100 for the full control effect; nearly all actives have a fitted effect of over 55% in size
TDP1 cell CPT: growth inhibition of DT40 Tdp1-/-;hTDP1 cells with camptothecin (screen for TDP1 inhibitors); chicken DT40 Tdp1-/-;hTDP1 cells + 20 nM CPT, ATP luminescence, 48 h; Potency, µM (series often up to 46.2 µM), without a hit: top-dose activity change, negative = growth inhibition, usual class: inhibitors; 420,000 tested, 12% active; AID 686979; also: potency is read from the fitted curve at half-maximal effect; % is scaled to controls: 0 for no effect and ±100 for the full control effect; nearly all actives have a fitted effect of over 55% in size
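Cell growth measured by CellTiter-Glo luminescence after a minimum 48 h, 37 C compound exposure with 20 nM CPT in Tdp1-knockout DT40 cells stably expressing hTDP1, seeded 400/well; qHTS titration format.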
TDP1 block: blocks human tyrosyl-DNA phosphodiesterase 1. Q9NUW8. recombinant TDP1, AlphaScreen DNA substrate cleavage. Potency, µM (highest dose often 130 µM), for the others: top-dose activity change, negative = inhibition, actives largely listed as inhibitors. AID 485290. 350,000 tested, 0.28% active; also: potency is read from the fitted curve at half-maximal effect; % is scaled to controls: 0 for no effect and ±100 for the full control effect; nearly all actives have a fitted effect of over 40% in size
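Enzyme-compound mixtures sat 15 min at room temperature, followed by a 5 min reaction with 15 nM final substrate and 10 min with AlphaScreen beads. Recombinant human Tdp1 was used at 1 nM final.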
miR-21 reporter: miR-21 reporter, rising signal; Potency, µM (titrated, usually from 38.3 µM), without a hit: at the highest dose reporter change, positive = more light; AID 2288; 340,000 tested, under 10 active; HeLa miR-21 FLuc reporter, luciferase, 48 h; active = well fitted rising curve with a large enough effect; inconclusive = small, poorly fitted or top-dose-only effect; inactive = no such curve, though single readings can be large or run the other way;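 note: % of control where 0% means no effect; miR-21 action dims this reporter so a rising signal means less miR-21 action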
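Using DMEM plus 10% FBS, HeLa miR-21-FLuc cells are incubated with test compounds (final up to about 40uM) for 48 hours; firefly luciferase signal is then imaged following reagent-mediated lysis.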
DT40 TDP1 no CPT: qHTS for Inhibitors of human tyrosyl-DNA phosphodiesterase 1 (TDP1): qHTS in cells in absence of CPT | DT40 Tdp1-/- hTDP1 cells, no CPT, ATP luminescence, 48 h | Potency, µM (doses to about 46.2 µM), for the others: at the highest dose activity change, negative = growth inhibition, hits mostly inhibitors | 420,000 tested, 15% active; also: potency is read from the fitted curve at half-maximal effect; % is scaled to controls: 0 for no effect and ±100 for the full control effect; nearly all actives have a fitted effect of over 55% in size
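DT40 Tdp1-/-;hTDP1 cells, no CPT (DMSO vehicle only), 400 cells/well; compounds pin-transferred; ≥48 hr, 37 °C; CellTiter-Glo 30 min RT dark, luminescence read.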
* = called active by the depositor; ? = inconclusive; nt = no result given. Unless noted, calls follow the shape of the dose curve; as a rule, active = well fitted curve in the direction sought with a large enough effect; inconclusive = small, poorly fitted or top-dose-only effect, or another doubt; inactive = no such curve, though single readings can be large; an effect the other way counts as inactive or inconclusive.

Assay codes – A = uPA generation; B = TDP1 cell CPT; C = TDP1 block; D = miR-21 reporter; E = DT40 TDP1 no CPT
canonical_smiles: O=c1cc(N2CCN(c3ccc(F)cc3)CC2)[nH]c(=O)n1-c1ccc(Br)cc1
  A: nt | B: ? | C: 0.0% | D: -0.9% | E: ?
canonical_smiles: Cc1cccc(S(=O)(=O)c2c(N)n(Cc3ccco3)c3nc4ccccc4nc23)c1
  A: 2.6% | B: ? | C: 1.0% | D: 8.9% | E: ?
canonical_smiles: CCCCn1c(N)c(S(=O)(=O)c2ccc(C)cc2)c2nc3ccccc3nc21
  A: 3.3% | B: -101.3% | C: 0.0% | D: -1.2% | E: ?
canonical_smiles: Cc1ccc(S(=O)(=O)c2c(N)n(Cc3ccco3)c3nc4ccccc4nc23)cc1
  A: -2.2% | B: ? | C: 0.0% | D: 9.9% | E: 18.4µM*
canonical_smiles: CN(C)CCCn1c(N)c(S(=O)(=O)c2ccccc2)c2nc3ccccc3nc21
  A: 0.5% | B: 18.4µM* | C: 4.2% | D: 0.1% | E: ?
canonical_smiles: CCOC(=O)c1ccc(NC(=O)NCc2ccc(OC)cc2)cc1
  A: 7.6% | B: 5.6% | C: 11.0% | D: -9.3% | E: ?
canonical_smiles: Cc1ccc(-c2c3c([nH]c(=S)c2C#N)CCCC3)o1
  A: 7.1% | B: 23.1µM* | C: 31.6µM* | D: -5.8% | E: ?
canonical_smiles: Cc1ccc(Sc2nc3ccc(C)cn3c(=O)c2/C=N/O)cc1
  A: 4.2% | B: -16.3% | C: 2.6% | D: 3.8% | E: ?
canonical_smiles: COc1ccc2noc3c2c1C(=O)c1ccccc1-3
  A: 10µM* | B: 14.6µM* | C: nt | D: nt | E: 18.4µM*
canonical_smiles: O=C1c2ccccc2-c2onc3ccc(NCCCn4ccnc4)c1c23
  A: ? | B: 14.6µM* | C: 9.8% | D: 27.0% | E: ?
canonical_smiles: NS(=O)(=O)c1ccc(NCCCn2ccnc2)c([N+](=O)[O-])c1
  A: 6.4% | B: 2.9% | C: 11.7% | D: -0.7% | E: -4.0%
canonical_smiles: COc1ccc(Nc2c3c(nc4ccc(NC(=O)/C=C/c5cccc(OC)c5OC)cc24)CCCC3)cc1OC
  A: nt | B: 2.31µM* | C: 14.7% | D: ? | E: 4.61µM*
canonical_smiles: COc1ccccc1Nc1c2c(nc3ccc(NC(=O)c4cccc(F)c4)cc13)CCCC2
  A: nt | B: 5.8µM* | C: 9.0% | D: -1.0% | E: 2.59µM*
canonical_smiles: COc1ccc(OC)c(NC(=O)c2c3c(nc4ccccc24)CCC3)c1
  A: nt | B: ? | C: 5.9% | D: -0.9% | E: -29.3%
canonical_smiles: COc1ccccc1Nc1c2c(nc3ccc(NC(=O)/C=C/c4cccc(OC)c4OC)cc13)CCCC2
  A: nt | B: 3.26µM* | C: 8.8% | D: 3.8% | E: 4.11µM*
canonical_smiles: O=C(Nc1ccc2nc3n(c(=O)c2c1)CCCC3)c1cccc(F)c1
  A: -3.2% | B: -30.0% | C: nt | D: -31.5% | E: -21.1%
canonical_smiles: COc1ccc(/C=C/C(=O)Nc2ccc3nc4c(c(Nc5ccccc5OC)c3c2)CCCC4)cc1
  A: nt | B: 3.26µM* | C: 11.8% | D: -6.8% | E: 3.66µM*
canonical_smiles: COc1cccc(/C=C/C(=O)Nc2ccc(N3CCOCC3)cc2)c1OC
  A: -5.0% | B: 8.3% | C: 2.5% | D: -41.2% | E: ?
canonical_smiles: CCCCn1c(SCC(=O)NC2CCS(=O)(=O)C2)nnc1-c1ccc(OC)cc1 (stereo unspecified)
  A: 4.1% | B: -7.0% | C: 0.5% | D: nt | E: -16.0%
canonical_smiles: CC(C)(NO)/C(=N\O)c1ccc(Cl)cc1
  A: 0.1% | B: -16.7% | C: -6.6% | D: -0.4% | E: -21.5%
canonical_smiles: COc1ccc2c(=O)c(C(=O)NCCc3ccccc3)c[nH]c2c1
  A: 11.2% | B: 16.4µM* | C: nt | D: -30.4% | E: ?
canonical_smiles: COc1ccc2[nH]cc(C(=O)NCCc3ccccc3)c(=O)c2c1
  A: 0.3% | B: -26.3% | C: nt | D: 0.4% | E: 18.4µM*
canonical_smiles: O=c1[nH]cc(NCc2ccccc2)c(=O)[nH]1
  A: 4.9% | B: 3.8% | C: nt | D: nt | E: -27.4%
canonical_smiles: CCN(CC)CC(O)CCCCCCCCC(=O)OC (stereo unspecified)
  A: 5.4% | B: 1.3% | C: 8.4% | D: -0.3% | E: -7.7%
canonical_smiles: COC(=O)CCCCCCCCC(O)CN(C)C (stereo unspecified)
  A: 3.7% | B: ? | C: 1.4% | D: 0.1% | E: 16.4µM*

More structures:
Assay codes – A = uPA generation; B = TDP1 cell CPT; C = TDP1 block; D = miR-21 reporter; E = DT40 TDP1 no CPT
canonical_smiles: NNc1nc2c(Cl)c(Cl)ccc2s1
  A: -1.5% | B: ? | C: ? | D: -29.5% | E: ?
canonical_smiles: CCC1CCCCN1S(=O)(=O)c1ccc(NC(=O)c2nc(SC)ncc2Cl)cc1 (stereo unspecified)
  A: nt | B: 20.6µM* | C: 4.9% | D: 25.8% | E: 23.1µM*
canonical_smiles: CCCSc1ncc(Cl)c(C(=O)Nc2ccc(S(=O)(=O)N3CCC(C)CC3)cc2)n1
  A: nt | B: ? | C: 3.7% | D: 27.4% | E: 14.6µM*
canonical_smiles: CCCSc1ncc(Cl)c(C(=O)Nc2ccc(S(=O)(=O)Nc3ncccn3)cc2)n1
  A: 1.1% | B: -6.3% | C: -1.3% | D: 1.7% | E: -4.8%

Grouped by structure, the compounds so far containing a furan ring, fused or not (three)
Assay codes – A = uPA generation; B = TDP1 cell CPT; C = TDP1 block; D = miR-21 reporter; E = DT40 TDP1 no CPT
canonical_smiles: Cc1cccc(S(=O)(=O)c2c(N)n(Cc3ccco3)c3nc4ccccc4nc23)c1
  A: 2.6% | B: ? | C: 1.0% | D: 8.9% | E: ?
canonical_smiles: Cc1ccc(S(=O)(=O)c2c(N)n(Cc3ccco3)c3nc4ccccc4nc23)cc1
  A: -2.2% | B: ? | C: 0.0% | D: 9.9% | E: 18.4µM*
canonical_smiles: Cc1ccc(-c2c3c([nH]c(=S)c2C#N)CCCC3)o1
  A: 7.1% | B: 23.1µM* | C: 31.6µM* | D: -5.8% | E: ?
